The results in this text go back to ChEMBL document CHEMBL5154928, “Structure-Aided Design, Synthesis, and Biological Evaluation of Potent and Selective Non-Nucleoside Inhibitors Targeting Protein Arginine Methyltransferase 5” (J Med Chem, 2022).

The assay concerns A-375. Kind of assay: Antiproliferation activity against human A-375 cells assessed as cell growth inhibition incubated for 5 days by CCK-8 assay. It is filed as functional, cell-based. As to conditions: time 5.0 day.

Molecules are shown by their SMILES.

As for `C[C@H](Oc1ccc(-c2cc3c(C4=CCNCC4)ncnc3[nH]2)cc1)c1ccccc1`, the Activity result is “Dde”.
